The source made the active and inactive calls. The calls are words filed in the database; no cut-off is given here.
Key:
J774.A1 = experiment: Antiinflammatory activity against mouse J774.A1 cells assessed as inhibition of LPS-stimulated IL-6 release measured for 24 hrs by ELISA method relative to control; format: functional
[1] = Toxicity in C57BL/6 mouse assessed as lung damage at 20 mg/kg, IG by H and E staining based analysis; format: organism-based; settings: in vivo, po
[2] = Toxicity in C57BL/6 mouse assessed as body weight loss at 20 mg/kg, IG measured every 12 hrs for 7 days; format: organism-based; settings: in vivo, po
[3] = Acute toxicity in ICR mouse assessed as heart damage at 500 mg/kg, IG measured up to 10 days by H and E staining based analysis; format: organism-based; settings: in vivo, po, 240 h, time < 10 day
[4] = Acute toxicity in ICR mouse assessed as liver damage at 500 mg/kg, IG measured up to 10 days by H and E staining based analysis; format: organism-based; settings: in vivo, po, 240 h, time < 10 day
[5] = Acute toxicity in ICR mouse assessed as spleen damage at 500 mg/kg, IG measured up to 10 days by H and E staining based analysis; format: organism-based; settings: in vivo, po, 240 h, time < 10 day
[6] = Acute toxicity in ICR mouse assessed as lung damage at 500 mg/kg, IG measured up to 10 days by H and E staining based analysis; format: organism-based; settings: in vivo, po, 240 h, time < 10 day
[7] = Acute toxicity in ICR mouse assessed as kidney damage at 500 mg/kg, IG measured up to 10 days by H and E staining based analysis; format: organism-based; settings: in vivo, po, 240 h, time < 10 day
[8] = biological target: Mast/stem cell growth factor receptor Kit (Mus musculus) (UniProt P05532); experiment: Inhibition of LPS-induced c-Kit phosphorylation in mouse J774.A1 cells at 5 uM incubated for 24 hrs by Western blot analysis; format: cell-based
[9] = biological target: Mast/stem cell growth factor receptor Kit (Mus musculus) (UniProt P05532); experiment: Induction of thermal stabilization of c-KIT in mouse J774.A1 cells at 45 to 57 degreeC at 10 uM incubated for 4 hrs by CETSA analysis; format: cell-based
[10] = biological target: Receptor-type tyrosine-protein kinase FLT3 (Homo sapiens) (UniProt P36888); experiment: Inhibition of FLT3 (unknown origin) assessed as residual activity at 10 uM relative to control
[11] = biological target: Cyclin-dependent kinase 16 (Homo sapiens) (UniProt Q00536); experiment: Inhibition of PCTAIRE1 (unknown origin) assessed as residual activity at 10 uM relative to control
[12] = biological target: Casein kinase I isoform gamma-2 (Homo sapiens) (UniProt P78368); experiment: Inhibition of CK1g2 (unknown origin) assessed as residual activity at 10 uM relative to control
[13] = Toxicity in c-KIT knockdown C57BL/6 mouse assessed as lung damage at 20 mg/kg, IG by H and E staining based analysis; format: organism-based; settings: in vivo, po
Mus musculus = experiment: Anti-inflammatory activity against CLP-induced sepsis C57BL/6 mouse model assessed as reduction in wet/dry ratio in lung at 20 mg/kg, IG pretreated with compound for 1 hr followed by CLP induction and measured every 12 hrs for 7 days; format: functional, organism-based; settings: time 169.0 hrs

Sequences of proteins named here, by UniProt entry; tags and fusion partners are left off. A change or cut given only in a name is not applied to a line headed by its entry.
UniProt P05532: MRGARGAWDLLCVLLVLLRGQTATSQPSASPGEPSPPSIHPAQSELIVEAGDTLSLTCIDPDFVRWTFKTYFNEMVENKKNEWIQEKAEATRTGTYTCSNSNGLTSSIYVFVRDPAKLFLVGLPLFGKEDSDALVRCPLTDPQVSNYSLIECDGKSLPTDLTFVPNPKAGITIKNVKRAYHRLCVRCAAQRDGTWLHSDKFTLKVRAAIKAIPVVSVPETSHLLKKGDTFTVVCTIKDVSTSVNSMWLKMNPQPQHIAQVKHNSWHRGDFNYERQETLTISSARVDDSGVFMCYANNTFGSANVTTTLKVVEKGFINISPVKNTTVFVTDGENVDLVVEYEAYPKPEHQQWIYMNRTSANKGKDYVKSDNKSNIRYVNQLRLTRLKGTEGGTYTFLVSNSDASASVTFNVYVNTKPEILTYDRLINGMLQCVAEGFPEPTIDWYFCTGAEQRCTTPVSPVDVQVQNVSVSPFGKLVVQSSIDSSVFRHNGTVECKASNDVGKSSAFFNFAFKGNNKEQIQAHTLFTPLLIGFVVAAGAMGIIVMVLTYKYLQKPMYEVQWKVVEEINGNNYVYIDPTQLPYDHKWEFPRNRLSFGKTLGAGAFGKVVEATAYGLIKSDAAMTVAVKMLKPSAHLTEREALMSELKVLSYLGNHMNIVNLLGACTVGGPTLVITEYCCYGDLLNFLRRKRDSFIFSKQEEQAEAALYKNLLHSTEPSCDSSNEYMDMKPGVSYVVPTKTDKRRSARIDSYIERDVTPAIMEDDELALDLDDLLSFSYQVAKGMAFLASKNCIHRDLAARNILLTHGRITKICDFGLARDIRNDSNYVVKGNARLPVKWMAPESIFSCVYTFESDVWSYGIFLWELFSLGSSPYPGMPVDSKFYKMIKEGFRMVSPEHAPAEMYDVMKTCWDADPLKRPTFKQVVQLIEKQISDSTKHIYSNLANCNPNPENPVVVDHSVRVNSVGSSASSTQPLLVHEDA
UniProt P36888, whole entry: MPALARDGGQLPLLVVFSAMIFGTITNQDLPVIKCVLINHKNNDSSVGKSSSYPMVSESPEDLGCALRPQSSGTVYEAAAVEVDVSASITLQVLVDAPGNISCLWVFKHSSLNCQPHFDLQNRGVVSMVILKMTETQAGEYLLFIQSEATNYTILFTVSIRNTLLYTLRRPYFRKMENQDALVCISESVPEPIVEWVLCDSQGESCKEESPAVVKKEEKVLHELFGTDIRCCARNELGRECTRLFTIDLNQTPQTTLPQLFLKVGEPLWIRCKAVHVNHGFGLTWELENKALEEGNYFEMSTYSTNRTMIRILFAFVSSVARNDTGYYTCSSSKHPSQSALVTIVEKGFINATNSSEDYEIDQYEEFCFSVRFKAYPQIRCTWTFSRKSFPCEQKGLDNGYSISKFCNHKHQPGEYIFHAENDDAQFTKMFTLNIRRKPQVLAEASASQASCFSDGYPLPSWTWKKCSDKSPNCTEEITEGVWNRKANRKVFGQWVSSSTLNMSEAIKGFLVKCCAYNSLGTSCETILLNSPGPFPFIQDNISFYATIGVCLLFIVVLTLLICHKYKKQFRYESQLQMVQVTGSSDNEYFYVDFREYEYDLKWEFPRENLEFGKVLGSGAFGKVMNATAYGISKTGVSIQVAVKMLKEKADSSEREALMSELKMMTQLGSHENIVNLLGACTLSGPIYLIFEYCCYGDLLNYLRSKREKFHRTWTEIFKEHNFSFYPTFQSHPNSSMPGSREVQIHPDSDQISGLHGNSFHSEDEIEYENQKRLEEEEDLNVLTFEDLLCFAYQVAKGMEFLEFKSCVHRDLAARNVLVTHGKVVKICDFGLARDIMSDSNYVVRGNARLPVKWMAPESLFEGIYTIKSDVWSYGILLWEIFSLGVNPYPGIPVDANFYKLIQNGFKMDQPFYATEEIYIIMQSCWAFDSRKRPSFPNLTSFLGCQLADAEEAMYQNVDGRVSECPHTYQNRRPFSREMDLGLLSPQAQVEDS
UniProt Q00536: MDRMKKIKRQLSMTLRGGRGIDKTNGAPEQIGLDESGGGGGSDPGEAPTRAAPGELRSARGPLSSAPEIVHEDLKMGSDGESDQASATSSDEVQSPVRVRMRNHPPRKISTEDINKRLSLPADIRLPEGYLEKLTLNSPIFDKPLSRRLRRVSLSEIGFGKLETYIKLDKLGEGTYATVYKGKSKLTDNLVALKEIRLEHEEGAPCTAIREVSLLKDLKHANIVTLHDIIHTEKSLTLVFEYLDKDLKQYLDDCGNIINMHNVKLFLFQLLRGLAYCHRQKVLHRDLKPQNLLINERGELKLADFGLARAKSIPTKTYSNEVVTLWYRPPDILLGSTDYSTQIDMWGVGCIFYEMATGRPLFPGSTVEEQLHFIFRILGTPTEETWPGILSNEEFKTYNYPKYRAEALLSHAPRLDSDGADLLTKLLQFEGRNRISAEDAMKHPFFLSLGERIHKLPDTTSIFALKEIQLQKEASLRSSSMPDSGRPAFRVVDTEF
UniProt P78368: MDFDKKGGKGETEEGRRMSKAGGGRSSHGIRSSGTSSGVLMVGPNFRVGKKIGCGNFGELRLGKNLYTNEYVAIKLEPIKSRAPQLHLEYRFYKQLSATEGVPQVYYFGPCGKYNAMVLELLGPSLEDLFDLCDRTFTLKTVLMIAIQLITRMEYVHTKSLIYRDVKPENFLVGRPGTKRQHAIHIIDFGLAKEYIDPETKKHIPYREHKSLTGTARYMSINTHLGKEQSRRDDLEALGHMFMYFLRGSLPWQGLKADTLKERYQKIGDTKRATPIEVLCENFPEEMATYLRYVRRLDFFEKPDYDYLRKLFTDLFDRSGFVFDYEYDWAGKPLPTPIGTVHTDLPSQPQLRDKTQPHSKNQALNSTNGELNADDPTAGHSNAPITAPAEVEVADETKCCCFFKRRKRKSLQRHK

With `O=C(NCCc1cccs1)c1cc(Oc2ccc(NC(=O)c3cn(-c4ccc(F)cc4)c4ccccc4c3=O)cc2)ccn1` the “inhibition (INH)” value (J774.A1) was 74.04%, the Activity [1] was “Non-toxic” and the Activity [2] was “Non-toxic”. The Activity [3] was “Non-toxic”, the Activity [4] was “Non-toxic” and the Activity [5] was “Non-toxic”. For the same compound, the Activity [6] was “Non-toxic”, the Activity [7] was “Non-toxic” and the inhibition [8] was “Active”. The Activity [9] was “Active”, the Activity [10] was 70% and the Activity [11] was 70%. For the same compound, the Activity [12] was 70% and the Activity [13] was “Non-toxic”.

In the case of `O=C(NCCCN1CCOCC1)c1cc(Oc2ccc(NC(=O)c3cn(-c4ccc(F)cc4)c4ccccc4c3=O)cc2)ccn1`, the inhibition (J774.A1) is reported as “inactive”.

In the case of `O=C(NCCc1cccs1)c1cc(Oc2ccc(NC(=O)c3cn(-c4ccc(F)c(Cl)c4)c4ccccc4c3=O)cc2F)ccn1`, the Activity (Mus musculus) is reported as “Active”.
